The values that follow come from patent US9908893B2, “Thieno [2,3-b] pyridines as multidrug resistance modulators” (Latvian Institute of Organic Synthesis, priority 2013, dated 2018).

Sequences of proteins named here, by UniProt entry; tags and fusion partners are left off. A change or cut given only in a name is not applied to a line headed by its entry.
UniProt P33527: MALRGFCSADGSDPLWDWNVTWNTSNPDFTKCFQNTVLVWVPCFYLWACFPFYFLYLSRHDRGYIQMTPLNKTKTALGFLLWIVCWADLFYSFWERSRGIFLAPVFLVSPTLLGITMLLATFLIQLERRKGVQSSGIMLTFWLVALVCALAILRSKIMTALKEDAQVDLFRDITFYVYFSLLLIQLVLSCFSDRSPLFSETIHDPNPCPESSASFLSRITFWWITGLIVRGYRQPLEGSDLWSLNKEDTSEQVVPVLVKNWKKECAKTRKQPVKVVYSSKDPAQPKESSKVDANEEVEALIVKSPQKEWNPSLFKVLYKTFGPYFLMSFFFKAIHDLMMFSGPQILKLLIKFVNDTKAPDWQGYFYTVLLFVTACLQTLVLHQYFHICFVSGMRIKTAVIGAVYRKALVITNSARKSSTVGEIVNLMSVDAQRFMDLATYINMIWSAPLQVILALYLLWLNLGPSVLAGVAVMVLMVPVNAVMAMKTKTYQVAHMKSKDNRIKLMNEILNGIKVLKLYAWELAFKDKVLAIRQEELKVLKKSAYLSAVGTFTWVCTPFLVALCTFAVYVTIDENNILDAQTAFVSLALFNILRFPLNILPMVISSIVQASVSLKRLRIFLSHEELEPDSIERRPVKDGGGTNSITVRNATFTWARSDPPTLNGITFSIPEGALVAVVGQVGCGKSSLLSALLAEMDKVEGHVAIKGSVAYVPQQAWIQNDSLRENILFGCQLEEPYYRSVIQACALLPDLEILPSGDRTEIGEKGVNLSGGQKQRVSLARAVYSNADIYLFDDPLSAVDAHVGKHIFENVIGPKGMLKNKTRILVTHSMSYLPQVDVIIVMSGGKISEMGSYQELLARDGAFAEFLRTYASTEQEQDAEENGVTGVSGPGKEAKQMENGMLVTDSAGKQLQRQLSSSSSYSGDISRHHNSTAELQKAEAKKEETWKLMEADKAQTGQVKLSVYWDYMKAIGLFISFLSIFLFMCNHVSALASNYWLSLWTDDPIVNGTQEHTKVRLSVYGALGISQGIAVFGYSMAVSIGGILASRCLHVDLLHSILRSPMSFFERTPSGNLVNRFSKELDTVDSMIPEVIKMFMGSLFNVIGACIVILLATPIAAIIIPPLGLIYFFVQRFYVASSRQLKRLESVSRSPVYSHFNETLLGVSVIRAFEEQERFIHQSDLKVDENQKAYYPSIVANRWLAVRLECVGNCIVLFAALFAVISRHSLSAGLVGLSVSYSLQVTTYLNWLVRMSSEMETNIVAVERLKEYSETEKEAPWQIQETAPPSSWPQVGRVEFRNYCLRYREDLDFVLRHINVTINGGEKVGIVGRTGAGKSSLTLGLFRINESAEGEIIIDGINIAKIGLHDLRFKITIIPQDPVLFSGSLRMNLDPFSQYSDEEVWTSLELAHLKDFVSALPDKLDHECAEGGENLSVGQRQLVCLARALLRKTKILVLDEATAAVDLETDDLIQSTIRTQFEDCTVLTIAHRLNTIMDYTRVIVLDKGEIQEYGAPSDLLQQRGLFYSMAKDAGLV
UniProt P08183, whole entry: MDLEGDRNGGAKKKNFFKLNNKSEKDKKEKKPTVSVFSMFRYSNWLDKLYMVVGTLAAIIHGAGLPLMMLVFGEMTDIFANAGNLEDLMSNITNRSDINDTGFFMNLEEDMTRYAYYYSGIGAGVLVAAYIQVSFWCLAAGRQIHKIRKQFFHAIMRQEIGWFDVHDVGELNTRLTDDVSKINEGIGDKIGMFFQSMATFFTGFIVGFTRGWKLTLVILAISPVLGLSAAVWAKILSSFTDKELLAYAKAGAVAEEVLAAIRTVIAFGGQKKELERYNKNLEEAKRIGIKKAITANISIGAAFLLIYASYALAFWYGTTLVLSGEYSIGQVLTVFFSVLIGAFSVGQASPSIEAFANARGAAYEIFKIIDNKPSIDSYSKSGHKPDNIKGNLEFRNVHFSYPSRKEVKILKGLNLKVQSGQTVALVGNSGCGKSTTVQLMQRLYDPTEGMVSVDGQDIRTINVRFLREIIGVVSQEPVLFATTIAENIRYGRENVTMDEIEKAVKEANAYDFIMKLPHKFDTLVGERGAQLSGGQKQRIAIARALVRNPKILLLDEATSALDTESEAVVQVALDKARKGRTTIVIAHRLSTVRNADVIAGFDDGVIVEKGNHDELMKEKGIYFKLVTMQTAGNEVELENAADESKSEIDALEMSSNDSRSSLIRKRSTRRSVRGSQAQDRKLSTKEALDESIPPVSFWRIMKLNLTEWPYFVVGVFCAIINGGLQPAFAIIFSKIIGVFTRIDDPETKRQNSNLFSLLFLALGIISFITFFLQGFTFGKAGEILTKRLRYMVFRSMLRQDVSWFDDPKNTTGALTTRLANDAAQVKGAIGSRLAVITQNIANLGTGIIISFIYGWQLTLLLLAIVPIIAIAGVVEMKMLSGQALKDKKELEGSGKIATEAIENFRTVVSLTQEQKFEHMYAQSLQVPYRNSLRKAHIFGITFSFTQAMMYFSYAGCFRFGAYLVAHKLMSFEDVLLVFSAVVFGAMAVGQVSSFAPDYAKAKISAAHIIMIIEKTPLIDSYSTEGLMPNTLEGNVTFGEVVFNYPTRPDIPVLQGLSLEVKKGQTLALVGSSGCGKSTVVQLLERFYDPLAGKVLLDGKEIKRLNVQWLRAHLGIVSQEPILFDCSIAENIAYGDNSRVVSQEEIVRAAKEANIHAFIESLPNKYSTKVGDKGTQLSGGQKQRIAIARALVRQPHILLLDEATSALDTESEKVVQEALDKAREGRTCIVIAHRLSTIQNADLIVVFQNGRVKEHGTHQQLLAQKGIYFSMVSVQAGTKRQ
UniProt Q9UNQ0: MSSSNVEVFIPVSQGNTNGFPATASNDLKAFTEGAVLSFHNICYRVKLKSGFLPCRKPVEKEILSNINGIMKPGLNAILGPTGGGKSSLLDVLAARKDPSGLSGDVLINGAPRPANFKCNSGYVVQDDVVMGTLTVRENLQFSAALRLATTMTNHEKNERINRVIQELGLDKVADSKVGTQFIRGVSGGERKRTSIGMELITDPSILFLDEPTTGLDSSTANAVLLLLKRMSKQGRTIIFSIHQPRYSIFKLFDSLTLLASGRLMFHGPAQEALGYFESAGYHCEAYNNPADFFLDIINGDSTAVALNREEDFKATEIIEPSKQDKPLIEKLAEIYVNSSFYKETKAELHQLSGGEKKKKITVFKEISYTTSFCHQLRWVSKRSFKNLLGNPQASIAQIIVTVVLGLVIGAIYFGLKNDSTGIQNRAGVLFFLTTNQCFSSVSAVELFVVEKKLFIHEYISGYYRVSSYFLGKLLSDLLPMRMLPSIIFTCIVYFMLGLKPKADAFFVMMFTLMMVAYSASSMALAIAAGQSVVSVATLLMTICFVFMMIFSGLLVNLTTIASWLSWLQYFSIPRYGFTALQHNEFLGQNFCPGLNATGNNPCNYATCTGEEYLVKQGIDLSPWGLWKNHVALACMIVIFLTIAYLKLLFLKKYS

Structures are written as SMILES. Like-named read-outs stand apart in the source and are kept apart here.

Data set [1] addresses T1, MRP1 (Homo sapiens, UniProt P33527). As to conditions: calcein AM assay, DOX resistant H69AR cells.
The next data set concerns the target P-glycoprotein (P-gp) (Homo sapiens, UniProt P08183). Put plainly: Measurement of P-glycoprotein activity: rhodamine 123 accumulation in MES-SA and MES-SA/Dx5 cells.
In data set [2] the target is T2, BCRP1 (Homo sapiens, UniProt Q9UNQ0). As to conditions: Hoechst 33342, mitoxantrone resistant MES-SA/MX2 cells.
Data set [3] concerns the target T1, MRP1. Put plainly: cell-based.
Data set [4] has as its target T2, BCRP1. Put plainly: cell-based.
[5] abbreviates: rhodamine 123 accumulation, doxorubicin resistant MES-SA/Dx5 cells.

Regarding `COC(=O)c1c(C)nc2sc(C(=O)c3cc(OC)c(OC)c(OC)c3)c(N)c2c1-c1cc(OC)c(OC)c(OC)c1`, at MRP1 [1], the “MDR, EC50, MRP1” value is on record as “No effect”. Further, the “MDR, EC50, P-gp” value at P-glycoprotein (P-gp) (setting [5]) is recorded as “No effect”. For the same compound, on BCRP1 [2], the “MDR, EC50, BCRP1” value is recorded as “No effect”.
Regarding `CCOC(=O)c1c(C)nc2sc(C(=O)c3ccc(OC)cc3)c(N)c2c1-c1cccc(OC)c1`, on MRP1 [1], the “MDR, EC50, MRP1” value is listed as “No effect”. Also, the “MDR, EC50, P-gp” value at P-glycoprotein (P-gp) (setting [5]) is given as “No effect”. For the same compound, the “MDR, EC50, BCRP1” value at BCRP1 [2] is reported as “No effect”.
Usually EC50 stands for the concentration at which the effect is half-maximal. For the compound `CCCOCCOC(=O)c1c(C)nc2sc(C(=O)c3ccc(OC)cc3OC)c(N)c2c1-c1cc(OC)c(OC)c(OC)c1`, the “MDR, EC50, MRP1” value on MRP1 [1] is recorded as “No effect”. The EC50 on P-glycoprotein (P-gp) (read-out: MDR, EC50, P-gp, rhodamine 123 accumulation, doxorubicin resistant MES-SA/Dx5 cells) came to 0.6 ± 0.1 µM; at BCRP1 [2] (read-out: MDR, EC50, BCRP1), 0.6 ± 0.1 µM.
For the compound `CCCOCCOC(=O)c1c(C)nc2sc(C(=O)c3cc(OC)c(OC)c(OC)c3)c(N)c2c1-c1cc(OC)c(OC)c(OC)c1`, the “MDR, EC50, MRP1” value at MRP1 [1] is recorded as “No effect”. Besides, on P-glycoprotein (P-gp) (setting [5]), the “MDR, EC50, P-gp” value is on record as “No effect”. Moreover, the “MDR, EC50, BCRP1” value on BCRP1 [2] was “No effect”.
With `COc1ccc(C(=O)c2sc3nc(C)c(C(C)=O)c(-c4ccc(OC)c(OC)c4)c3c2N)cc1` [Compound 1, 5-Acetyl-3-amino-4-(3,4-dimethoxyphenyl)-2-(4-methoxybenzoyl)-6-methyl-thieno[2,3-b]pyridine], the EC50 came to 11.5 ± 0.5 µM at P-glycoprotein (P-gp), 8.9 ± 1.4 µM at MRP1 [3] and 9.1 ± 0.1 µM at BCRP1 [4].
With `COc1ccc(C(=O)c2sc3nc(C)c(C(C)=O)c(-c4ccc(OC)c(OC)c4)c3c2N)c(OC)c1` [Compound 2, 5-Acetyl-3-amino-2-(2,4-dimethoxybenzoyl)-4-(3,4-dimethoxyphenyl)-6-methyl-thieno[2,3-b]pyridine], the 50% effective concentration (EC50) at P-glycoprotein (P-gp) stood at 13.8 ± 0.3 µM; on MRP1 [3], 11.8 ± 1.2 µM; at BCRP1 [4], 5.5 ± 0.4 µM.
Consider `COc1ccc(C(=O)c2sc3nc(C)c(C(C)=O)c(-c4cc(OC)c(OC)c(OC)c4)c3c2N)c(OC)c1` [Compound 4, 5-Acetyl-3-amino-2-(2,4-dimethoxybenzoyl)-6-methyl-4-(3,4,5-trimethoxyphenyl)-thieno[2,3-b]pyridine], for which the results for the EC50 at P-glycoprotein (P-gp) and on MRP1 [3] were 8.5 ± 0.7 µM and 7.7 ± 0.4 µM, respectively. Also, at BCRP1 [2], the “MDR, EC50, BCRP1” value is “No effect”.
With `COC(=O)c1c(C)nc2sc(C(=O)c3ccc(F)cc3)c(N)c2c1-c1cc(OC)c(OC)c(OC)c1` [Compound 8, 3-Amino-2-(4-fluorobenzoyl)-6-methyl-4-(3,4,5-trimethoxyphenyl)thieno[2,3-b]-pyridine-5-carboxylic acid methyl ester], the EC50 at P-glycoprotein (P-gp) was 11 ± 1 µM; on MRP1 [3] it was 10.4 ± 1.2 µM; at BCRP1 [4], 2.7 ± 0.5 µM.
Consider `COC(=O)c1c(C)nc2sc(C(=O)c3ccc(Cl)cc3)c(N)c2c1-c1cc(OC)c(OC)c(OC)c1` [Compound 9, 3-Amino-2-(4-chlorobenzoyl)-6-methyl-4-(3,4,5-trimethoxyphenyl)thieno[2,3-b]-pyridine-5-carboxylic acid methyl ester], for which the “MDR, EC50, MRP1” value at MRP1 [1] was “No effect”. Besides, the EC50 amounted to 10.8 ± 1.6 µM on P-glycoprotein (P-gp) and 1.4 ± 0.3 µM at BCRP1 [4].
With `COC(=O)c1c(C)nc2sc(C(=O)c3ccc(OC)cc3)c(N)c2c1-c1cc(OC)c(OC)c(OC)c1` [Compound 10, 3-Amino-2-(4-methoxybenzoyl)-6-methyl-4-(3,4,5-trimethoxyphenyl)thieno[2,3-b]pyridine-5-carboxylic acid methyl ester], the EC50 on P-glycoprotein (P-gp) stood at 1.5 ± 0.2 µM; on MRP1 [3], 4.5 ± 0.5 µM; at BCRP1 [4], 4 ± 0.8 µM.
`COC(=O)c1c(C)nc2sc(C(=O)c3ccc(OC)cc3OC)c(N)c2c1-c1cc(OC)c(OC)c(OC)c1` [Compound 11, 3-Amino-2-(2,4-dimethoxybenzoyl)-6-methyl-4-(3,4,5-trimethoxyphenyl)thieno[2,3-b]pyridine-5-carboxylic acid methyl ester]: the EC50 at P-glycoprotein (P-gp) turned out to be 6.9 ± 0.9 µM; at MRP1 [3], 7.1 ± 0.6 µM; on BCRP1 [4], 1.7 ± 0.2 µM.
`CCOC(=O)c1c(C)nc2sc(C(=O)c3ccc(OC)cc3)c(N)c2c1-c1ccc(O)cc1` [Compound 14, 3-Amino-4-(4-hydroxyphenyl)-2-(4-methoxybenzoyl)-6-methylthieno[2,3-b]-pyridine-5-carboxylic acid ethyl ester]: the EC50 on P-glycoprotein (P-gp) came to 26 ± 4.2 µM; at MRP1 [3], 30.7 ± 6 µM; at BCRP1 [4], 10.2 ± 1.6 µM.
In the same order, the values of `CCOC(=O)c1c(C)nc2sc(C(=O)c3ccc(OC)cc3)c(N)c2c1-c1ccc(O)c(OC)c1` [Compound 16, 3-Amino-4-(4-hydroxy-3-methoxyphenyl)-2-(4-methoxybenzoyl)-6-methyl-thieno[2,3-b]pyridine-5-carboxylic acid ethyl ester] are 5.3 ± 0.8 µM, 4.9 ± 0.2 µM and 3.3 ± 1.1 µM.
On to `CCOC(=O)c1c(C)nc2sc(C(=O)c3ccc(F)cc3)c(N)c2c1-c1ccc(OC)c(OC)c1` [Compound 18, 3-Amino-4-(3,4-dimethoxyphenyl)-2-(4-fluorobenzoyl)-6-methylthieno[2,3-b]-pyridine-5-carboxylic acid ethyl ester], for which the EC50 at P-glycoprotein (P-gp) came out at 26.7 ± 0.9 µM; at MRP1 [3] it was 22.1 ± 2 µM; on BCRP1 [4], 3 ± 0.8 µM.
In the case of `CCOC(=O)c1c(C)nc2sc(C(=O)c3ccc(Cl)cc3)c(N)c2c1-c1ccc(OC)c(OC)c1` [Compound 19, 3-Amino-2-(4-chlorobenzoyl)-4-(3,4-dimethoxyphenyl)-6-methylthieno[2,3-b]-pyridine-5-carboxylic acid ethyl ester], on MRP1 [1], the “MDR, EC50, MRP1” value is “No effect”. Further, the concentration giving a half-maximal response (EC50) on P-glycoprotein (P-gp) was 28.4 ± 2.5 µM; at BCRP1 [4], 5.7 ± 0.9 µM.
In the case of `CCOC(=O)c1c(C)nc2sc(C(=O)c3ccc(OC)cc3)c(N)c2c1-c1ccc(OC)c(OC)c1` [Compound 20, 3-Amino-4-(3,4-dimethoxyphenyl)-2-(4-methoxybenzoyl)-6-methylthieno[2,3-b]-pyridine-5-carboxylic acid ethyl ester], the EC50 was 9.9 ± 1.6 µM at P-glycoprotein (P-gp), 9.4 ± 1.6 µM on MRP1 [3] and 1.1 ± 0.3 µM on BCRP1 [4].
As for `CCOC(=O)c1c(C)nc2sc(C(=O)c3ccc(OC)cc3OC)c(N)c2c1-c1ccc(OC)c(OC)c1` [Compound 21, 3-Amino-2-(2,4-dimethoxybenzoyl)-4-(3,4-dimethoxyphenyl)-6-methyl-thieno[2,3-b]pyridine-5-carboxylic acid ethyl ester], the EC50 was 8.2 ± 1 µM at P-glycoprotein (P-gp), 8 ± 0.2 µM on MRP1 [3] and 2 ± 0.4 µM at BCRP1 [4].
Consider `CCOC(=O)c1c(C)nc2sc(C(=O)c3ccc(F)cc3)c(N)c2c1-c1cc(OC)c(OC)c(OC)c1` [Compound 22, 3-Amino-2-(4-fluorobenzoyl)-4-(3,4,5-trimethoxyphenyl)-6-methylthieno[2,3-b]-pyridine-5-carboxylic acid ethyl ester], for which the EC50 on P-glycoprotein (P-gp) is 4 ± 0.2 µM; at MRP1 [3], 8.6 ± 0.1 µM; on BCRP1 [4] it was 1.1 ± 0.4 µM.
For `CCOC(=O)c1c(C)nc2sc(C(=O)c3ccc(Cl)cc3)c(N)c2c1-c1cc(OC)c(OC)c(OC)c1` [Compound 23, 3-Amino-2-(4-chlorobenzoyl)-4-(3,4,5-trimethoxyphenyl)-6-methylthieno[2,3-b]-pyridine-5-carboxylic acid ethyl ester], in that order: 3.2 ± 0.7 µM, 30.4 ± 1.3 µM and 8.1 ± 1.3 µM.
Regarding `CCOC(=O)c1c(C)nc2sc(C(=O)c3ccc(OC)cc3)c(N)c2c1-c1ccc(Cl)cc1` [Compound 28, 3-Amino-4-(4-chlorophenyl)-2-(4-methoxybenzoyl)-6-methylthieno[2,3-b]-pyridine-5-carboxylic acid ethylester], at MRP1 [1], the “MDR, EC50, MRP1” value is reported as “No effect”. Also, the EC50 worked out at 10 ± 0.2 µM at P-glycoprotein (P-gp) and 2.7 ± 0.6 µM on BCRP1 [4].
Turning to `CCOC(=O)c1c(C)nc2sc(C(=O)c3ccc(OC)cc3)c(N)c2c1-c1ccc(N(C)C)cc1` [Compound 29, 3-Amino-4-(4-dimethylaminophenyl)-2-(4-methoxybenzoyl)-6-methylthieno[2,3-b]-pyridine-5-carboxylic acid ethylester], the “MDR, EC50, MRP1” value on MRP1 [1] is given as “No effect”. Moreover, the half-maximal effective concentration (EC50) amounted to 1.8 ± 0.6 µM on P-glycoprotein (P-gp) and 0.5 ± 0.1 µM on BCRP1 [4].
On to `COCCOC(=O)c1c(C)nc2sc(C(=O)c3cccc(OC)c3)c(N)c2c1-c1cc(OC)c(OC)c(OC)c1` [Compound 33, 3-Amino-2-(3-methoxybenzoyl)-6-methyl-4-(3,4,5-trimethoxyphenyl)thieno[2,3-b]-pyridine-5-carboxylic acid 2-methoxyethyl ester], for which, on MRP1 [1], the “MDR, EC50, MRP1” value is recorded as “No effect”. Also, the EC50 came out at 1.3 ± 0.1 µM at P-glycoprotein (P-gp) and 1.2 ± 0.3 µM on BCRP1 [4].
In the same order, the values of `CCOC(=O)c1c(-c2cc(OC)c(OC)c(OC)c2)nc2sc(C(=O)c3cc(OC)c(OC)c(OC)c3)c(N)c2c1-c1cc(OC)c(OC)c(OC)c1` [Compound 40, 3-Amino-4,6-bis-(3,4,5-trimethoxyphenyl)-2-(3,4,5-trimethoxybenzoyl)-thieno[2,3-b]pyridine-5-carboxylic acid ethyl ester] are “No effect”, 3.4 ± 0.4 µM and 0.4 ± 0.1 µM.
